Tests used:
[1] = test system: O=C(O)c1ccccc1[N+](=O)[O-]; experiment: purified protein; settings: pH 7.4, 37 °C, saturating cofactor, anaerobic, pH 7.4
CC(C)O = experiment: purified protein; settings: NAD+ saturating, pH 8.8, 37 °C, pH 8.8

| Substance | Km [1] [µM] | kcat [1] [s⁻¹] | Km (CC(C)O) [µM] | kcat (CC(C)O) [s⁻¹] |
| --- | --- | --- | --- | --- |
| EntNfsB (Enterobacter cloacae; F124A/S40A/T41I) | 808 | 0.473 | – | – |
| TBADH (Thermoanaerobacter brockii; G198S/R200P/S199K/Y218V) | – | – | 3740 ± 540 | 1.87 ± 0.095 |

— PMC8616928, “Versatile selective evolutionary pressure using synthetic defect in universal metabolism” (Nature Communications, 2021)
